In ChEMBL document CHEMBL1130256, “1-[1-2-Benzo[b]thiopheneyl)cyclohexyl]piperidine hydrochloride (BTCP) yields two active primary metabolites in vitro: synthesis, identification from rat liver microsome extracts, and affinity for the neuronal dopamine transporter” (J Med Chem, 1997) one finds IC50 and Amount data, which are given here for two compounds.

Chains of the proteins cited; added tags and fusions are not shown.
UniProt P23977, whole entry, looked up: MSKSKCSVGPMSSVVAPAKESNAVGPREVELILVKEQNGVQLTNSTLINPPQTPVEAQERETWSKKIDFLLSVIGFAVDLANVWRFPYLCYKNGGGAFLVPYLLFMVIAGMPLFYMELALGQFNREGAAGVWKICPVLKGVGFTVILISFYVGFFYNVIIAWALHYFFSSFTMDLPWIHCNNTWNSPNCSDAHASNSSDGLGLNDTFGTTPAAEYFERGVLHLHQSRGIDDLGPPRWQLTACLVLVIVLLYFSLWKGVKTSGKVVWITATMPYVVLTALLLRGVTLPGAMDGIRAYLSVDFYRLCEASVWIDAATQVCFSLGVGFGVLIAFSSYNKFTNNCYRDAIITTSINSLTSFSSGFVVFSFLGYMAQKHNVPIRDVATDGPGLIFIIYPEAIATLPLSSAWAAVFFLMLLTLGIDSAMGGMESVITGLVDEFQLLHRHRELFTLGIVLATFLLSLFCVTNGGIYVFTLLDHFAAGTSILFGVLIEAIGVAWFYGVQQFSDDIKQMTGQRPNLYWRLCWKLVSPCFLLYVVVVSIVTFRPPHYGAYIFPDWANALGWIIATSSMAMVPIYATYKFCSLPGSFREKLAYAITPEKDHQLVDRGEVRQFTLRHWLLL

Data set [1] addresses Sodium-dependent dopamine transporter (Rattus norvegicus, UniProt P23977). The data set is described as follows: Inhibitory activity of compound against [3H]BTCP binding to neuronal dopamine transporter of rat striatal membrane.
Data set [2] in a line: Amount of metabolites in the microsomal medium after 90 min incubation of BTCP (500 uM). The note with it: microsomes, 1.5 h.

In turn, `O[C@H]1CC[C@](c2cc3ccccc3s2)(N2CCCCC2)CC1` had an IC50 in data set [1] of 113 nM. For the same compound, the Amount in data set [2] is 765 pM.
For the compound `O[C@H]1CC[C@@](c2cc3ccccc3s2)(N2CCCCC2)CC1`, in data set [1], the IC50 came to 53.4 nM. In addition, the Amount in data set [2] worked out at 91 pM.

A word on the IC50: it is the concentration that gives 50% inhibition.
